Experimental data taken from ChEMBL document CHEMBL5257151, “Design, synthesis, and pharmacological evaluation of N-(3-carbamoyl-1H-pyrazol-4-yl)-1,3-oxazole-4-carboxamide derivatives as interleukin-1 receptor-associated kinase 4 inhibitors with reduced potential for cytochrome P450 1A2 induction” (Bioorg Med Chem, 2023).

The chains behind the UniProt entries cited, without tags or fusion partners. Where a name states a change or a piece, a line headed by the entry shows the natural chain unless it says otherwise.
UniProt P36888, whole entry: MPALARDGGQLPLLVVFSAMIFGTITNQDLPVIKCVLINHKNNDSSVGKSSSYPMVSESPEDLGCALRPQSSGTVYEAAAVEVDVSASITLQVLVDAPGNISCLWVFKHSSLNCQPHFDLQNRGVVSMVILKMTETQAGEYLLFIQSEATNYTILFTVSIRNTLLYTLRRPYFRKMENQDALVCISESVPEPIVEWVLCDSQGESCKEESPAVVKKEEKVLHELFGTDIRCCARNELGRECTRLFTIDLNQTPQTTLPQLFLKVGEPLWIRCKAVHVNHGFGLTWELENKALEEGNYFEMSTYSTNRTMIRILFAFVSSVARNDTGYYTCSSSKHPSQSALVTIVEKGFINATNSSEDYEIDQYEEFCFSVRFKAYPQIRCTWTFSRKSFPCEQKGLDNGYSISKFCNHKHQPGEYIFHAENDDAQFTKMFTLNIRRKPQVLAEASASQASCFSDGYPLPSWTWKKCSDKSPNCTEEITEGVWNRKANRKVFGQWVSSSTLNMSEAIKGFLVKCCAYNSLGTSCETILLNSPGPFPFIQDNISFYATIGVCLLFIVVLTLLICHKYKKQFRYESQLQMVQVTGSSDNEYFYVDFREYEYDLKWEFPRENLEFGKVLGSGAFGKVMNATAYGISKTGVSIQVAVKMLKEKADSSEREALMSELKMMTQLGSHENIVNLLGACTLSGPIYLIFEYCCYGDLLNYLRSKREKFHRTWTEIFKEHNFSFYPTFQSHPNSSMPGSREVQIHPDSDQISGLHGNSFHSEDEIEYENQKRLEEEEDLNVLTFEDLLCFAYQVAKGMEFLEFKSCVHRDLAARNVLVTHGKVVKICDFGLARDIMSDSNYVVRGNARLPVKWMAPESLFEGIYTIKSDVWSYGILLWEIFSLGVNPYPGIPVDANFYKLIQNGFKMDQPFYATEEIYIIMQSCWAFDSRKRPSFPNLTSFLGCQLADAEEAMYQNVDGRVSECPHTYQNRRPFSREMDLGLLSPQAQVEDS
UniProt P49759: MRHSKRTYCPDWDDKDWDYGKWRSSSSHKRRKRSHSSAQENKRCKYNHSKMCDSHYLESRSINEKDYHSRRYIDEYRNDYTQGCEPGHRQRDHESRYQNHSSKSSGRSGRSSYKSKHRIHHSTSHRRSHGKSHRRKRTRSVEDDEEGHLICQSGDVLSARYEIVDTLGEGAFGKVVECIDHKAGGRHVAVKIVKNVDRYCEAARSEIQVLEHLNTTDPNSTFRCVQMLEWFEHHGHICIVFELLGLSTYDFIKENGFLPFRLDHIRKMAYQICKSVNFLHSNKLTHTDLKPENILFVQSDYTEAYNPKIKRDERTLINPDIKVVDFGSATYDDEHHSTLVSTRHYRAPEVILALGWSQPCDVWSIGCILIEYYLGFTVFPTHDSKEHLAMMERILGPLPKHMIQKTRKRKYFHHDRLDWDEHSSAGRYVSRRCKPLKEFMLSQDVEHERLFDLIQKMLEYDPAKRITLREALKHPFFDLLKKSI
UniProt P07949, whole entry: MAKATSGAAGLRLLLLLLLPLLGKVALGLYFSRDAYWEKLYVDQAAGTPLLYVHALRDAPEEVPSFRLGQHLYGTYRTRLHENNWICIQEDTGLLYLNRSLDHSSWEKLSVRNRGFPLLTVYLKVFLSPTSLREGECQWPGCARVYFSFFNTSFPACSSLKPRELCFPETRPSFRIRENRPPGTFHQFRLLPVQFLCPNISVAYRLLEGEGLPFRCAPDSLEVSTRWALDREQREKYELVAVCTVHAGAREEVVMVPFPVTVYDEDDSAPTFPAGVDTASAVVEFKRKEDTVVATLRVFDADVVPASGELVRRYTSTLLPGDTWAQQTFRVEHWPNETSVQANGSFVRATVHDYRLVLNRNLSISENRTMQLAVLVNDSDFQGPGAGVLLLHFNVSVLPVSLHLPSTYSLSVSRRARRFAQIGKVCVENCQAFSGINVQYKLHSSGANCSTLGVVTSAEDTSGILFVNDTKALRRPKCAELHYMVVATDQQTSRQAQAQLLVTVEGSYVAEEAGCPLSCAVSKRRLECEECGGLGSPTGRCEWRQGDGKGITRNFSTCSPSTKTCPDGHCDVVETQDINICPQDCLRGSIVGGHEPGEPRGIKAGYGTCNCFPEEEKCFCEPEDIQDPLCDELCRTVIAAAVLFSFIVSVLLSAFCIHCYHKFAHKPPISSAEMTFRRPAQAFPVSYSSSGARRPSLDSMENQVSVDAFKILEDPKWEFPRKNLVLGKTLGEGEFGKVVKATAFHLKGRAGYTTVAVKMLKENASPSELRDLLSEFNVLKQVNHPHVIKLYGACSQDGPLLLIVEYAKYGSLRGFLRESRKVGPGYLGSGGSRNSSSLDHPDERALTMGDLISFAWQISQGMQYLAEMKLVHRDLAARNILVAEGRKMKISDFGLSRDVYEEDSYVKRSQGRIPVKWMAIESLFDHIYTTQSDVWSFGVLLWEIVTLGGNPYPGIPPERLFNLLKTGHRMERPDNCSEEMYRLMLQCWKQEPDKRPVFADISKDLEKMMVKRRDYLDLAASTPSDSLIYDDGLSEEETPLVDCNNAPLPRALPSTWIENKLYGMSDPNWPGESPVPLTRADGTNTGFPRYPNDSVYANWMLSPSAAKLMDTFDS
UniProt P16234: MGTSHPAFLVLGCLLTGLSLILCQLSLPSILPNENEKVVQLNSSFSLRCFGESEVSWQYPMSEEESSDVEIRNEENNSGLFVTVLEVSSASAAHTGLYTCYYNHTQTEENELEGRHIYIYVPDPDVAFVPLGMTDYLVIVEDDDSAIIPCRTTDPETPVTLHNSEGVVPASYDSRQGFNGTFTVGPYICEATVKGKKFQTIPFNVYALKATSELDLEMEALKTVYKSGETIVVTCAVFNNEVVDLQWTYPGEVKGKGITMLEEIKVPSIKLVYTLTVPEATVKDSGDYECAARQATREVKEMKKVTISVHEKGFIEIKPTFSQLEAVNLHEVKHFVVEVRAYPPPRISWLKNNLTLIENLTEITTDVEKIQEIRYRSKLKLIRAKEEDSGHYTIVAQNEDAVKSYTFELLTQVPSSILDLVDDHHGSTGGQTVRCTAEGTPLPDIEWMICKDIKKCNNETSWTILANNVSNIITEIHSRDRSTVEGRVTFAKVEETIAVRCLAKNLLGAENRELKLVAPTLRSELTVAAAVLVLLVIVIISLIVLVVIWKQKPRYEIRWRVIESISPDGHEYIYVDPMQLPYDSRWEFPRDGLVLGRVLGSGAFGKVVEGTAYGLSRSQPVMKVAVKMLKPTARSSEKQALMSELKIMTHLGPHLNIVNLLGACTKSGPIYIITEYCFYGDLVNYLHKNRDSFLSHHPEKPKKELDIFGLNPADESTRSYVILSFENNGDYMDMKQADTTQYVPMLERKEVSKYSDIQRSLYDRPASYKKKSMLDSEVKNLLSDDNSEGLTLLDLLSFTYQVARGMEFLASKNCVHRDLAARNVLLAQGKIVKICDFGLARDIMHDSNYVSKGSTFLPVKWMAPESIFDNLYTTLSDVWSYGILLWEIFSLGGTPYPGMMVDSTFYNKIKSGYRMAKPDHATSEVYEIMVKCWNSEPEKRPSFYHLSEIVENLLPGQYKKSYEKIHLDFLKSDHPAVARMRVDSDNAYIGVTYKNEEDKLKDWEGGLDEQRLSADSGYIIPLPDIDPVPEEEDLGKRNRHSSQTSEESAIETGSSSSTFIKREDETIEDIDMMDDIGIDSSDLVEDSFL

What was measured:
[1] = target: Receptor-type tyrosine-protein kinase FLT3 (Homo sapiens) (UniProt P36888); experiment: Inhibition of FLT3 (unknown origin) at 1 uM relative to control
[2] = target: Dual specificity protein kinase CLK1 (Homo sapiens) (UniProt P49759); experiment: Inhibition of CLK1 (unknown origin) at 1 uM relative to control
[3] = target: T1, Tyrosine-protein kinase ITK/TSK (Homo sapiens) (UniProt Q08881); experiment: Inhibition of ITK (unknown origin) at 1 uM relative to control
T1 sequence (whole entry): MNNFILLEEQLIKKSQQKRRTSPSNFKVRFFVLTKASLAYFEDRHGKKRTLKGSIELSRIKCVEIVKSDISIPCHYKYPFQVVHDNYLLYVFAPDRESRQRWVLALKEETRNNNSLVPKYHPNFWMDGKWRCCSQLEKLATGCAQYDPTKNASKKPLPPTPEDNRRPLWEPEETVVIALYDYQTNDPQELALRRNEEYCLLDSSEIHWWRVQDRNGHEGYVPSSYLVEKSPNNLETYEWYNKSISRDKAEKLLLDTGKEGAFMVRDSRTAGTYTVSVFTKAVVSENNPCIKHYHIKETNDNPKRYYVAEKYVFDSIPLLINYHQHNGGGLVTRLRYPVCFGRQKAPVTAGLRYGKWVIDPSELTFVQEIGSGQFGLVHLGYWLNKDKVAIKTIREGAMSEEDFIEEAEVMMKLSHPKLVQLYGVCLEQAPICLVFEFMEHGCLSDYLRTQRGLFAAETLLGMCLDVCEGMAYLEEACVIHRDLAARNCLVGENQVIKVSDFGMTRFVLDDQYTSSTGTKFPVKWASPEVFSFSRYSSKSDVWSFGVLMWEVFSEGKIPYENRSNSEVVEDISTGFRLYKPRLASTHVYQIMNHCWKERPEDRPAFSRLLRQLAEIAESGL

[4] = target: Proto-oncogene tyrosine-protein kinase receptor Ret (Homo sapiens) (UniProt P07949); experiment: Inhibition of RET (unknown origin) at 1 uM relative to control
[5] = target: Platelet-derived growth factor receptor alpha (Homo sapiens) (UniProt P16234); experiment: Inhibition of PDGFRalpha (unknown origin) at 1 uM relative to control

## Cc1cc(-c2nc(C(=O)Nc3cn(C4CCOCC4)nc3C(N)=O)co2)ccn1
[1]
  inhibition: 99.6%
[2]
  inhibition: 97.8%
[3]
  inhibition: 95%
[4]
  inhibition: 82.1%
[5]
  inhibition: 80.3%
